Source: patent US20150164899A1, “INHIBITION OF ADAPTOR ASSOCIATED KINASE 1 FOR THE TREATMENT OF PAIN” (priority 2012, published 2015)

By UniProt entry, the sequences of proteins in these tests, tags left out. Residues count along the entry.
UniProt Q2M2I8, whole entry: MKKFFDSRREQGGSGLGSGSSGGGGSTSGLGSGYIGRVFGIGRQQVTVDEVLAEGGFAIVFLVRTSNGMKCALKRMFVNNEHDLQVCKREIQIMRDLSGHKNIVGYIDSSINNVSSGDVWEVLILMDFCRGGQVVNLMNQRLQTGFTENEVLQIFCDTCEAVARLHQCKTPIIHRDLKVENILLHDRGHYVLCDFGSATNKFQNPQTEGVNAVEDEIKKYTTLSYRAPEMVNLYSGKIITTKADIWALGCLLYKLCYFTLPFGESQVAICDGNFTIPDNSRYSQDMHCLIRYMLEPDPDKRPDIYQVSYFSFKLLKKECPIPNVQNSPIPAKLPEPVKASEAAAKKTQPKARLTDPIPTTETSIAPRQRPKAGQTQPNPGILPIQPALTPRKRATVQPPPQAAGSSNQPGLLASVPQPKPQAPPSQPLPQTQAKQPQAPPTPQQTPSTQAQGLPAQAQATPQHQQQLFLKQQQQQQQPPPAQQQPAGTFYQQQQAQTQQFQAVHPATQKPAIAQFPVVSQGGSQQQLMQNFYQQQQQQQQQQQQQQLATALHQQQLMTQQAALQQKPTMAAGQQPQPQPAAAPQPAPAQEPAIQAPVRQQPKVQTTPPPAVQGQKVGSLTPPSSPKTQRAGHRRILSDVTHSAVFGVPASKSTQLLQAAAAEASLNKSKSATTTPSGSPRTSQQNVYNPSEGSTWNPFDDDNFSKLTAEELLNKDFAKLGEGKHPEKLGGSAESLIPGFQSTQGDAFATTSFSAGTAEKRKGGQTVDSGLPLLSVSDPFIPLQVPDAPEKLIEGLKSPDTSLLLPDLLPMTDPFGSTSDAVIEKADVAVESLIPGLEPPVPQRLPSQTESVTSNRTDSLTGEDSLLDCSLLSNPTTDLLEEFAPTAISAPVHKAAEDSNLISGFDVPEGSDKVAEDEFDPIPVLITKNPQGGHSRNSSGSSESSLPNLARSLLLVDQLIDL
UniProt Q2M2I8, 1-863 isoform 2: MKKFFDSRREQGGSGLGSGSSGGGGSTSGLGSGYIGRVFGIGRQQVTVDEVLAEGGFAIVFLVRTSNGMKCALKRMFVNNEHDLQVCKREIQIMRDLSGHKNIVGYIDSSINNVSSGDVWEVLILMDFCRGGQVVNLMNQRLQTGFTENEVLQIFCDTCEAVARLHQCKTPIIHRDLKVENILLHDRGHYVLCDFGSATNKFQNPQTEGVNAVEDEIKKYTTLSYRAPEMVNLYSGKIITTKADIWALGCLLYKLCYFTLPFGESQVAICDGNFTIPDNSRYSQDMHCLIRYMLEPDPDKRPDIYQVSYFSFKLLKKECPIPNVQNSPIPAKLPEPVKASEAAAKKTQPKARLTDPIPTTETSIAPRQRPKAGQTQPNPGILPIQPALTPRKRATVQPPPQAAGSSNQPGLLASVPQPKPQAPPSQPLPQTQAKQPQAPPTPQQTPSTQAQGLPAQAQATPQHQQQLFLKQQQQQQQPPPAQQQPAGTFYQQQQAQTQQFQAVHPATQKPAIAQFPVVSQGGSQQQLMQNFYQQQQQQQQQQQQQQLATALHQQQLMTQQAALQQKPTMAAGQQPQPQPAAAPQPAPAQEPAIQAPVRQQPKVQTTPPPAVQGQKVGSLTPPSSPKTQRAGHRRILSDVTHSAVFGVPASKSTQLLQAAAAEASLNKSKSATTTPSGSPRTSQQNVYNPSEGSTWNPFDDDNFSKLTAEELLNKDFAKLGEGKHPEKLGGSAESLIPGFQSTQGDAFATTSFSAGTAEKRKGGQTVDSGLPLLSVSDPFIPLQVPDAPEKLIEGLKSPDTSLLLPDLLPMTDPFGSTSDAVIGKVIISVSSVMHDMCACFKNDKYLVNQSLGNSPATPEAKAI

How the values were obtained:
[1] = molecular target: GST-Xa-hAAK1 (Homo sapiens, UniProt Q2M2I8); assay: Caliper assay; conditions: read-out: Caliper IC50; aryl ethers, class symbols
[2] = molecular target: AAK1 (full length human) in transfected HEK293F cells (Homo sapiens, UniProt Q2M2I8); assay: HEK281 cell-based assay (phospho-mu2 Western blot); conditions: read-out: CBA IC50; aryl ethers, class symbols

CC(C)C[C@H](N)COc1ccc2c(c1)oc(=O)c1cnccc12
IC50 [1]: 10 to 100 nM | IC50 [2]: 10 to 100 nM
